Assay: in vivo paclitaxel release from stent (explanted stents, total drug load by HPLC)
Conditions: normalized for 3 mm×16 mm stent

Structure (SMILES): CC(=O)O[C@H]1C(=O)[C@@]2(C)[C@H]([C@H](OC(=O)c3ccccc3)[C@]3(O)C[C@H](OC(=O)[C@H](O)[C@@H](NC(=O)c4ccccc4)c4ccccc4)C(C)=C1C3(C)C)[C@]1(OC(C)=O)CO[C@@H]1C[C@@H]2O [paclitaxel]
- initial release in the first day (amount): about 1.5 μg
